{"source": "paper PMC8324038", "about": "(ACS infectious diseases, 2021)", "key": {"[1]": {"molecular_target": "T1, purified PenA1 β-lactamase (Burkholderia multivorans, UniProt A0A0H3KN52)", "T1 sequence (A0A0H3KN52 28-302)": "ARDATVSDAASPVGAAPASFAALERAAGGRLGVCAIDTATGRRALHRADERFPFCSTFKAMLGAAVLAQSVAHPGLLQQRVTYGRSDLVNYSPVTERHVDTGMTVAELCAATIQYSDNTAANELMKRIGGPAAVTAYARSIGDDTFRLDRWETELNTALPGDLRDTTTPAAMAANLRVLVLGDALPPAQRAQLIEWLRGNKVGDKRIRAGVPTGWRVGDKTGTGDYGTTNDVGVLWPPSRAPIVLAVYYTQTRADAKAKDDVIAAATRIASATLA", "assay": "Acylation rate k2/K", "type": "biochemical", "conditions": "acylation rate (kinact/KI or k2/K), nitrocefin 100 μM reporter"}, "[2]": {"molecular_target": "T2, PenA1 β-lactamase (wild-type) (Burkholderia multivorans, UniProt A0A0H3KN52)", "T2 sequence (A0A0H3KN52 28-302)": "T1 sequence (A0A0H3KN52 28-302)", "assay": "IC50 with crude protein extracts, nitrocefin reporter", "type": "biochemical"}}, "data": [{"compound": "NC(=O)[C@@H]1CC[C@@H]2CN1C(=O)N2OS(=O)(=O)O", "note": "[avibactam]", "values": [{"measurement": "k2/K", "setting": "[1]", "result": "340 to 2e+06", "unit": "M⁻¹ s⁻¹"}, {"measurement": "IC50", "setting": "[2]", "result": 1000, "unit": "nM"}]}]}
